Usually Kd stands for the free concentration of one partner at which half of the binding sites on the other are occupied at equilibrium, for simple one-to-one binding.

Amino acid sequences for entries named in this document (tags omitted). Residues count along the entry.
UniProt P07949, 724-1016 limits assumed: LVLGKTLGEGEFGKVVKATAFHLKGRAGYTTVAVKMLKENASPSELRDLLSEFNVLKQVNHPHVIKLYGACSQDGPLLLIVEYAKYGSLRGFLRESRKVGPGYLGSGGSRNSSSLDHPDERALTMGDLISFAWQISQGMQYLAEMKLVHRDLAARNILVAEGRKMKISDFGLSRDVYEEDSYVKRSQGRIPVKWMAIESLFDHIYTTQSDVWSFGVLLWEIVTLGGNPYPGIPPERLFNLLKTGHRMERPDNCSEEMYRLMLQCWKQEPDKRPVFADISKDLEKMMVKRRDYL

Where only a bound is given, the exact number is not on record here.

The values below come from patent publication US20240287081A1, “PERFLUOROALKANE SUBSTITUTED PYRAZOLO[3,4-D]PYRIMIDIN AND PYRROLO[2,3-D]PYRIMIDIN COMPOUNDS AND USES THEREOF” (ICAHN SCHOOL OF MEDICINE AT MOUNT SINAI, priority 2021, published 2024).

Data set [1] deals with wild-type RET kinase domain (Homo sapiens, UniProt P07949). In words: Wild-type RET Kd, bead based competition assay (KINOMEscan, DiscoverX). The settings on record: read-out: Kd towards wild-type RET; recombinant human wild-type RET kinase domain, average of two replicates.
The test system of the next data set is MDCK. In words: MDCK permeability assay. The note with it: 5 μM.
In the next data set the test system is Caco-2. Briefly: Caco-2 permeability assay. The settings on record: 5 μM. In general terms: Caco-2 cells form a polarised layer with tight junctions and transporters.
For the next data set, the system named is ptc>dRet^M955T flies. In words: Fly rescue assay (Drosophila MTC model ptc>dRet^M955T). The class given is in vivo. The settings on record: compound in fly food. As to the method:
Kinase-mutated fly stocks were obtained from Bloomington Drosophila Stock Center (BDSC; Bloomington, IN). The active mutant form of Drosophila Ret (dRet^955T) carries an M955T mutation corresponding to the M918T mutation commonly reported for multiple endocrine neoplasia (MEN) type 2B patients12,14,16,34. The ptc-gal4, UAS-GFP;UAS-dRet^M955T/SM5tub-gal80-TM6B transgenic flies were prepared according to standard protocols and crossed with non-transgenic w-flies (BDSC) to generate ptc-gal4, UAS-GFP; UAS-dRet^M955T(ptc>dRet^M955T) flies for chemical screening.
All drugs were synthesized in-house. All compounds were dissolved in DMSO (Sigma-Aldrich; St. Louis, MO) and mixed with semi-defined fly medium (BDSC) to make drug food (0.1% final DMSO concentration). For drug screening, ptc>dRet^M955T embryos were raised until adulthood on drug food for 13 d at 25° C. The number of empty pupal cases (i.e., adults) ? that of total pupal cases (P) to determine % viability. Fly randomization was used throughout the assays.
The initial libraries of perfluoroalkyl-analogs of sorafenib and regorafenib were screened in the Drosophila MTC model ptc>Ret^M955T (FIG. 4). In this model, compounds are assessed based on their ability to suppress oncogenic Ret^M955T-induced tumors, which can be quantified as ‘rescue’ from lethality. […]

Setting [2] is: 1 hour at 37° C., HBSS pH 7.4 both sides.

In the case of `CCc1ccc(NC(=O)Nc2ccc(Oc3ccnc(C(=O)NC)c3)cc2F)cc1`, in data set [1], the Kd was 1 nM. Besides, in the data set on MDCK (setting [2]), the influx/efflux ratio in MDCK was less than 1. The “rates of influx and efflux in MDCK, in words” value in the data set on MDCK (compared to APS-8-100-2 (40)) is “much faster rates of influx and efflux”. Also, the influx/efflux ratio in Caco-2 with Caco-2 (setting [2]) was less than 1. Moreover, the “rates of influx and efflux in Caco-2, in words” value in the data set on Caco-2 (compared to APS-8-100-2 (40)) was “much faster rates of influx and efflux”.

For the compound `CNC(=O)c1cc(Oc2ccc(NC(=O)Nc3ccc(C(F)(F)C(F)(F)C(F)(F)F)cc3)c(F)c2)ccn1`, the Kd in data set [1] is 25 nM.

For the compound `CNC(=O)c1cc(Oc2ccc(NC(=O)Nc3ccc(C(F)(C(F)(F)F)C(F)(F)F)cc3)c(F)c2)ccn1`, the results for the “rescue activity in the fly model, in words” value with ptc>dRet^M955T flies and in the data set with ptc>dRet^M955T flies (listed as 36) were “exceptional in vivo activity” and “surpassed the activity of previously described analog APS-6-45 (3)”, respectively. The Kd in data set [1] stood at 27 nM.
